In publication PMC6087491 (Bioorganic & medicinal chemistry, 2018):

Assays:
[1] = tested on: gingival fibroblast (HGF); settings: HGF normal human cells, concentration higher than 100 μM
oral keratinocyte (OK) = settings: OK normal human cells, concentration higher than 100 μM

Which results are given for `COc1cc(/C=C/c2ccc(OC(=O)C(C)(CO)CO)cc2)cc(OC)c1` [Compound 12, 4-(3,5-Dimethoxystyryl)phenyl-3-hydroxy-2-(hydroxymethyl)-2-methylpropanoate]?
effect on cell viability [1]: No significant effects on cell viability; effect on cell viability (oral keratinocyte (OK)): No significant effects on cell viability
